This passage reports IC50 results from ChEMBL document CHEMBL3603807, “Discovery of 2-arylamino-4-(1-methyl-3-isopropylsulfonyl-4-pyrazol-amino)pyrimidines as potent anaplastic lymphoma kinase (ALK) inhibitors” (Bioorg Med Chem Lett, 2015).

The subject of assay [1] is NCI-H2228. The experiment in a line: Antiproliferative activity against human NCI-H2228 cells assessed as inhibition of cell proliferation incubated for 96 hrs by cell-titer-Glo assay. The class given is functional, cell-based. The following applies: NCI-H2228, 96 h.
Assay [2] can be described thus: Antiproliferative activity against human KARPAS299 cells assessed as inhibition of cell proliferation incubated for 96 hrs by cell-titer-Glo assay. The class given is functional, cell-based. The following applies: KARPAS-299, 96 h.

For the compound `Cc1cc(Nc2ncc(Cl)c(Nc3cn(C)nc3S(=O)(=O)C(C)C)n2)c(OC(C)C)cc1C1CCN(C)CC1`, the IC50 (in general, the midpoint of a concentration-inhibition curve) in assay [1] is 0.096 µM.
On the same count and under the same terms, the value for `Cc1cc(Nc2ncc(Cl)c(Nc3cn(C)nc3S(=O)(=O)C(C)C)n2)c(OC2CC2)cc1C1CCN(C)CC1` was 0.052 µM.
Turning to `CC(C)S(=O)(=O)c1nn(C)cc1Nc1nc(Nc2cc(F)c(C3CCN(C)CC3)cc2OC2CC2)ncc1Cl`, the figures for the IC50 in assay [1] and in assay [2] were 0.125 µM and 0.017 µM, respectively.
Regarding `Cc1cc(Nc2ncc(Cl)c(Nc3cn(C)nc3S(=O)(=O)C(C)C)n2)c(OC2CC2)cc1C1CCN(C(C)C)CC1`, the 50% inhibitory concentration (IC50) in assay [1] was 0.058 µM.
